The list shows a part of the results, in another mix than the full data. Some of these compounds have results that are not shown, active ones among them. Activity calls are given as the source filed them.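 Rule for the calls: active = GFP response relative to DMSO above a set limit, near the screen mean plus 3 SD (cut at about 150% in these data); inconclusive = Fewer than 70 cells measured for a yeast strain; inactive = the rest.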
Test: TOR pathway RTG branch CIT2 reporter changes – S. cerevisiae, GFP fusion, multiplex flow cytometry, MLPCN library, primary screen (AID 2029);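 note: ratio of well median GFP fluorescence to mean of DMSO wells on the plate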
Details: S. cerevisiae CIT2-GFP strain, 3 h, at 10 µM, stronger effect = higher value, 100 means same as DMSO wells

**Q.** For `Cc1ccccc1C(=O)NCC1(N2CCCCC2)CCCCC1`, which GFP response vs DMSO is on record?
**A.** inactive: 95.6%

**Q.** With `CN(C)C1CCCC1OC(=O)C(O)(c1ccccc1)c1ccccc1` (stereo not drawn) as the compound, how does the GFP response vs DMSO read?
**A.** inactive: 114%

**Q.** With `CN(C)c1ccc(C(=O)NCC2(N(C)C)CCCCC2)cc1` as the compound, how does the GFP response vs DMSO read?
**A.** inactive: 108%

**Q.** With `C=CCN1CCN(CCOC(=O)C(O)(c2ccccc2)c2ccccc2)CC1` as the compound, how does the GFP response vs DMSO read?
**A.** inactive: 95.1%

**Q.** For `O=C(NCC1(N2CCCCC2)CCCCC1)c1cc(F)c(F)cc1Cl`, which GFP response vs DMSO is on record?
**A.** inactive: 90.8%

**Q.** For `COc1ccc(C(=O)NCC2(N(C)C)CCCCC2)cc1`, which GFP response vs DMSO is on record?
**A.** inactive: 102%

**Q.** With `CCN1CCCC(OC(=O)C2(O)c3ccccc3C=Cc3ccccc32)C1` (stereo not drawn) as the compound, how does the GFP response vs DMSO read?
**A.** inactive: 97%

**Q.** Which GFP response vs DMSO does the source give for `O=C(NCC1(N2CCCCC2)CCCCC1)c1cccc(Br)c1` here?
**A.** inactive: 109%

**Q.** Which GFP response vs DMSO does the source give for `O=C(NCC1(N2CCCCC2)CCCCC1)c1cc([N+](=O)[O-])ccc1Cl` here?
**A.** inactive: 106%

**Q.** With `CN1[C@@H]2CC[C@H]1CC(OC(=O)C(O)(c1ccccc1)c1ccccc1)C2` (stereo partly drawn) as the compound, how does the GFP response vs DMSO read?
**A.** inactive: 96.2%

**Q.** For `CCN(CC)CC(C)C(C)OC(=O)C(O)(c1ccccc1)c1ccccc1` (stereo not drawn), which GFP response vs DMSO is on record?
**A.** inactive: 92.8%

**Q.** For `COc1cc(SC)ccc1C(=O)NCC1(N(C)C)CCCCC1`, which GFP response vs DMSO is on record?
**A.** inactive: 110%

**Q.** Which GFP response vs DMSO does the source give for `CC(C)N1C(=O)CC2(CCN(CCOC(=O)C(O)(c3ccccc3)c3ccccc3)CC2)C1=O` here?
**A.** inactive: 99.3%

**Q.** For `Cc1ccc(C(=O)NCC2(N3CCCCC3)CCCCC2)cc1`, which GFP response vs DMSO is on record?
**A.** inactive: 97.3%

**Q.** With `O=C(OC1CN2CCC1CC2)C(CO)(c1ccccc1)c1ccccc1` (stereo not drawn) as the compound, how does the GFP response vs DMSO read?
**A.** inactive: 104%

**Q.** Which GFP response vs DMSO does the source give for `COc1ccc(Br)c(C(=O)NCC2(N3CCCCC3)CCCCC2)c1` here?
**A.** inactive: 102%

**Q.** For `CC(C)Oc1ccc(C(=O)NCC2(N(C)C)CCCCC2)cc1`, which GFP response vs DMSO is on record?
**A.** inactive: 103%

**Q.** Which GFP response vs DMSO does the source give for `CN(C)c1cccc(C(=O)NCC2(N(C)C)CCCCC2)c1` here?
**A.** inactive: 116%

**Q.** For `CN(C)C1(CNC(=O)c2ccc(Br)cc2)CCCCC1`, which GFP response vs DMSO is on record?
**A.** inactive: 100%

**Q.** Which GFP response vs DMSO does the source give for `COc1cc(C(=O)NCC2(N(C)C)CCCCC2)c([N+](=O)[O-])cc1OC` here?
**A.** inactive: 92.7%

**Q.** With `COc1cccc(C(=O)NCC2(N3CCCCC3)CCCCC2)c1` as the compound, how does the GFP response vs DMSO read?
**A.** inactive: 105%

**Q.** For `COc1ccc(Cl)cc1C(=O)NCC1(N(C)C)CCCCC1`, which GFP response vs DMSO is on record?
**A.** inactive: 107%

**Q.** For `O=C(NCC1(N2CCCCC2)CCCCC1)c1cccc(Cl)c1`, which GFP response vs DMSO is on record?
**A.** inactive: 108%

— PubChem BioAssay AID2029 (NMMLSC, 2009)
